In test [1] the test system is SKBR-3 cell line. The test is described as follows: SRB assay, simultaneous combination treatment with JM-118 and herceptin, 96 hours. Type of test: cell-based, human.
Test [2] relates to SKBR-3 cell line. The test is described as follows: SRB assay, sequential: herceptin 120 hours, followed by JM-118 24 hours. Type of test: cell-based, human. The following applies: Herceptin first. For orientation: The SRB assay estimates cell density from bound dye.

This is an account of results in patent publication US8048888B2, “Anti-proliferative combination therapy using certain platinum-based chemotherapeutic agents and EGFR inhibitors or pyrimidine analogues” (Agennix AG, priority 2005, dated 2011).

As for “Herceptin: monoclonal antibody that binds HER2”, the Growth inhibition was found to be 41.4% with SKBR-3 cell line [1] (JM118 0 + Herceptin 0.0020 μM); 44.7% with SKBR-3 cell line [1] (JM118 0 + Herceptin 0.0039 μM); 48.0% in the test with SKBR-3 cell line [1] (JM118 0 + Herceptin 0.0078 μM); 51.4% in the test on SKBR-3 cell line [1] (JM118 0 + Herceptin 0.0156 μM); 54.8% in the test on SKBR-3 cell line [1] (JM118 0 + Herceptin 0.0313 μM); 28.1% in the test on SKBR-3 cell line [2] (JM118 0 + Herceptin 0.0020 μM). In addition, the Growth inhibition came out at 30.9% in the test on SKBR-3 cell line [2] (JM118 0 + Herceptin 0.0039 μM), 34.1% in the test with SKBR-3 cell line [2] (JM118 0 + Herceptin 0.0078 μM), 37.4% with SKBR-3 cell line [2] (JM118 0 + Herceptin 0.0156 μM) and 41.1% in the test on SKBR-3 cell line [2] (JM118 0 + Herceptin 0.0313 μM).
